Binding of CDR-mutated scFvs to a peptide of the spike HR2 region

Data: MIT Lincoln Laboratory AlphaSeq set, Li et al. 2023, doi:10.1038/s41467-023-39022-2, as distributed in FLAb.

Target: peptide PDVDLGDISGINAS, taken from heptad repeat 2 (HR2) of SARS-CoV-2 spike.

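Phage display of a naive human antibody library on the peptide gave the parent. The variants were designed computationally from a first round of random CDR variants and then made and measured. Several design methods are mixed in this list. Affinity was read by AlphaSeq, a pooled yeast mating assay with surface-displayed partners. Binding brings cells together so that they mate, and sequencing counts the barcode pairs among the diploids. Read counts were normalised to the haploid input and turned into Kd by a linear fit to BCL2-family pairs of known affinity, for each replicate. The assay was run in six technical replicates.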

Each scFv is VH, three GGGGS repeats, VL, as in the parent Ab-14, and differs from it in the CDRs of the light chain only.
VH: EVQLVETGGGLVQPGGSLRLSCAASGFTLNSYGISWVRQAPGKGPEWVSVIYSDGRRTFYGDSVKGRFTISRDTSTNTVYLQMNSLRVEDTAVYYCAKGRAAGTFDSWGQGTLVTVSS
VL: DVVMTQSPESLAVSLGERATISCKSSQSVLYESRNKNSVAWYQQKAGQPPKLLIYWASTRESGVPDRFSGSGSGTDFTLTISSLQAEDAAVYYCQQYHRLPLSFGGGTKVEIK

Each variant is given by its three light chain CDRs, as the data file delimits them; those of the parent are KSSQSVLYESRNKNSVA, WASTRES, QQYHRLPLS.
Values are apparent Kd, the geometric mean of the replicates that gave a signal; lower means stronger binding.
"not detected" means that the variant was in the library but no mating with the target was seen in any replicate; the authors take this as a sign of poor binding, and no number exists.
A sequence measured in both rounds can read differently, since the two assays cover different ranges.

| Kd (apparent) | replicates with signal | CDR-L1 | CDR-L2 | CDR-L3 |
|---|---|---|---|---|
| 660 pM | 6/6 | KLSQSFLYESRNKNNVA | NASQRES | QQYHRLPLS |
| 440 pM | 6/6 | KVSQSELYESRNKNNVA | NASTRES | QQYHRLPLS |
| 1.2 nM | 6/6 | KNSLSVLYESRNKNSVA | DASTRES | QQYHRLPLS |
| 1.8 nM | 6/6 | KLYSSMGYLSHNKNSIA | DMSRREN | QQYHRLPLS |
| 2.8 nM | 6/6 | KLSMITGHQLMSKNNVA | EMVTREN | QQYNRLPLS |
| 630 pM | 6/6 | TLMFAGEQEDSENKAIA | DAIHKGV | QQYNRLPLT |
| 7.2 nM | 6/6 | NLSWKLSGFENEWMAVA | NTSERNA | QQYARLPLS |
| 870 pM | 6/6 | KFSQSWGMESRNKNSVA | NASTRMS | QQYHRLPLS |
| 280 nM | 6/6 | MISQLINMGSFAINSVA | QASLRNE | QQYDRLPLM |
| 23 nM | 6/6 | KSSISYLGESRNKNYVA | EASTRES | QQYHMGPLG |
| 820 pM | 6/6 | HFLSLSLHQTGNLNSVA | DAEERQE | QQYMRLPLM |
| 8.9 nM | 5/6 | MISQLYNFGTFAINSVA | QASTRME | QQYHRLPLM |
| 8.2 nM | 6/6 | NISESMYYQSRMKNNIA | EMSTRER | QHYHRLPLS |
| not detected | 0/6 | KSSQSVRYESRNKNSVA | WDSNRES | QQYHRLPLS |
| 2.7 nM | 6/6 | TLGYNTMVESIKKNNVA | EMSTRLN | QQYVRLPLA |
| 31 nM | 6/6 | KDSQSVLYESLNKNSVA | SASTRES | QQYHRLPLG |
| 25 nM | 6/6 | MISDTGLHDSRMKNSVA | NNSTRES | QQYHRLPLS |
| 540 nM | 4/6 | KLSQSVRMESFNKNSVA | ENSTREA | QDYHRLPLS |
| 8.5 nM | 6/6 | QFDQFYRVGALNTDSIA | HAEMRVQ | QSYNRLPLM |
| 850 pM | 6/6 | KVSQSELYESRNKNSVA | EASTRMS | QQYHRLPLS |
| 14 nM | 2/6 | RVSSMLMAGGIIYNNIA | NTKVLER | QQYMRLPLM |
| not detected | 0/6 | KSSQSVLYEQRNKNSVA | WASTRES | QDYHRLGLS |
| 810 pM | 6/6 | KLQQSELYESRNKNSVA | NASTRLS | QQYHRLPLS |
| 8.6 nM | 6/6 | KLSQSVLYESRWKNSVA | WASTRES | QQYHRLPLS |
| not detected | 0/6 | KLSATYRFESQNKNSIA | EMSTRES | QCYHRLPLS |
| 3.1 nM | 5/6 | ALSFEMSSPGLHSNNVA | SASKLCM | QQYFTLPLS |
| 1.8 µM | 1/6 | QITNQTAGISNGIDSIA | EETNLTD | QQYGHLPLS |
| 30 nM | 6/6 | KIGWSVSYESRNKNSVA | WASTRES | QQYHRLPLS |
| 1.1 nM | 6/6 | KLPQSELYESRNKNSVA | AASTRES | QQYHRLPLS |
| 670 pM | 6/6 | KVDQSVLGQSRNKNAVA | AASTRED | QQYHRLPLS |
| not detected | 0/6 | KLCQSVLKESRNMNSVA | WHSERTS | EQYMRLPLS |
| 620 pM | 6/6 | KLPQSGLYESRNKNSVA | EASTREV | QQYHRLPLS |
| 1.7 nM | 6/6 | KLSQSVLYESQNKNSVA | NASTRMS | QQYHRLPLS |
| 600 pM | 6/6 | KLSMLHDYESRNKNSVA | QASTRES | QQYHRLPLS |
| 2.1 nM | 6/6 | KLPQSVGYESRNKNSVA | NASQRES | QQYHRLPLS |
| 2.1 nM | 6/6 | VFQQQWDGHTLTNSSVA | NVDERME | QQYYRLPLM |
| 4.7 nM | 6/6 | TISQVMNSLTRHGNNVA | DLAERED | QQYFRLPLS |
| 50 nM | 1/6 | KSSQSWLYISRNKNSVA | SASTTES | QQYSRLPLS |
| 2.2 nM | 6/6 | KLSQSVGYESRNKNSVA | NASTREE | QQYHRLPLS |
| 380 nM | 4/6 | KSSQSVWYESNNLNSVA | WASTRES | QQYHRLPLS |
| 730 pM | 6/6 | TGSQSWLYESINKNSVA | QASTRES | QQYHRLPLS |
| 1.7 nM | 6/6 | KVKNMMNQMGTQHQNIA | DGAIKCD | QQYQRLPLW |
| 2.2 nM | 6/6 | TLSHSTDLESVHKNNIA | DLMTRES | QQYDRLPLS |
| 61 nM | 4/6 | HMRHEFYGYWNYDQAVA | HANQRLN | QQYSRLPLS |
| 600 nM | 1/6 | RLENQETEQIQHANSIA | DRDEVDS | QQYAHLPLS |
| 1.4 nM | 6/6 | KFSQSDLYESRTKNGVA | NASTRES | QQYHRLPLS |
| 330 nM | 1/6 | KLMMFMQGIGCMKNNIA | NLKEVAT | QQYAQLPLV |
| 690 pM | 6/6 | KVSGSMLYESRNKNSVA | NASTRES | QQYHRLPLS |
| 590 pM | 6/6 | KVSDMMAFLSRNRNSIA | DNSTRGS | QQYHRLPLS |
| 720 pM | 6/6 | KSSQSWLKESRNKNSVA | GASTRQS | QQYHRLPLS |
| 27 nM | 1/6 | QLSHPSDSWQIHQDSIA | DDNLSLT | QQYHQLPLS |
| 6.3 nM | 6/6 | KQSQSVLYESRNKNSVA | MGSTRES | QQYHRLPLS |
| not detected | 0/6 | FMEMDFQENSGRGNSVA | SEEVKTR | QHYGRLPLS |
| 1.0 nM | 6/6 | KSSISYLYESRNGNSVA | EASTREQ | QQYHRLPLS |
| 1.4 nM | 6/6 | KQSQAFLQESRNMNSVA | DANTRES | QQYHRLPLS |
| 2.0 nM | 6/6 | KFSQSGLYESRNKNSVA | NASTRES | QQYHRLPLS |
| 2.5 nM | 6/6 | KLSQSDWMESRNPNNVA | HASYRES | QQYHRLPLS |
| 110 nM | 1/6 | KMSDSVLYESRNKNSVA | WASTRES | QQYVRLPLS |
| 42 nM | 1/6 | MLDNCQAGYYQKNNNVA | EMNIRCY | QQYGRLPLM |
| 140 nM | 6/6 | KSSQSVLYERRNKNSVA | NASTRES | QQYHRLPLS |
| 4.4 nM | 6/6 | KSSDSVLPETRNKNSVA | EASTRCS | QQYWRLPLS |
| 100 nM | 6/6 | KLRMLTLTGGYFKNSVA | QASTREN | QSYHRLPLS |
| 460 pM | 6/6 | KLSQSDLYESRNKNSVA | QASTRES | QQYHRLPLS |
| 4.1 nM | 6/6 | NFPQESMYESHFKNNVA | QTSTREP | QQYDHLPLS |
| 68 nM | 6/6 | KFSQSVLMESRNKNSVA | WASTRES | QQYHRLPNS |
| 600 pM | 6/6 | KVSQSELYESRNWNSVA | NASTRES | QQYHRLPLS |
| 2.2 nM | 6/6 | KLSSSWLMEQRNVNSVA | QASQRLR | QQYHRLPLS |
| 440 pM | 6/6 | DMTGQFNGASNIQHSVA | HGVEKID | QQYVRLPLA |
| 1.8 nM | 6/6 | KISQSVLYESRNWNAVA | EASQRES | QQYHRLPLS |

The first 5 variants above that were never detected:

| CDR-L1 | CDR-L2 | CDR-L3 | Kd (apparent) | replicates with signal |
|---|---|---|---|---|
| KSSQSVRYESRNKNSVA | WDSNRES | QQYHRLPLS | not detected | 0/6 |
| KSSQSVLYEQRNKNSVA | WASTRES | QDYHRLGLS | not detected | 0/6 |
| KLSATYRFESQNKNSIA | EMSTRES | QCYHRLPLS | not detected | 0/6 |
| KLCQSVLKESRNMNSVA | WHSERTS | EQYMRLPLS | not detected | 0/6 |
| FMEMDFQENSGRGNSVA | SEEVKTR | QHYGRLPLS | not detected | 0/6 |

Of ten entries with the parent sequence, four were seen in most replicates (averages 2.2 nM to 240 nM), three in one and three in none, so single entries are noisy.
Background: pairings of all light chain designs with three empty control strains gave a value in 4% of cases (median 430 nM, 5th percentile 38 nM). Values in that range, when seen in few replicates, are hard to tell from nonspecific mating.
The authors averaged sequences with at least three values out of six and counted those with two or fewer as poor binders.